How the values were obtained:
[1] = molecular target: T1, hNav1.4 (Homo sapiens, UniProt P35499); experiment: Automated planar whole-cell patch clamp (Patchliner), hSCN4A CHO cells; format: cell-based; conditions: concentrations tested up to 50 nM
T1 construct: expressed in transfected cells; host or cells: CHO
From the text: (§1) To characterize the functional activity of Hm1a and Hm1b, HEK293T cells stably transfected with either hSCN1A, hSCN2A, hSCN3A, hSCN5A, hSCN9A or hSCN10A as well as CHO cells stably transfected with hSCN4A or hSCN8A were used for whole-cell patch-clamp analysis with a high throughput automated planar patch-clamp technology.
(§2) HEK293T cells stably transfected with either hSCN1A, hSCN2A, hSCN3A, hSCN5A, hSCN9A or hSCN10A were maintained in Dulbecco's Modified Eagle's Medium Nutrient Mixture F-12 (Invitrogen, Carlsbad, Calif., USA) supplemented with 10% (v/v) foetal bovine serum (FBS) (Invitrogen), 0.9% Penicillin/Streptomycin (P/S) solution and 100 μg/mL hygromycin or 100 μg/mL neomycin. CHO cells stably transfected with hSCN4A or hSCN8A were maintained in Ham's F12 Nutrient Mixture (Invitrogen, Carlsbad, Calif., USA) supplemented with 10% (v/v) FBS, 0.9% P/S solution and 100 μg/mL hygromycin. All cells were grown in T75 flasks (BD Biosciences, San Jose, Calif., USA) to ˜70% confluency.
(§3) Patch-clamp recordings were conducted in the whole-cell configuration using a Patchliner® (Nanion Technologies, Munich, Germany). […]

The chains behind the UniProt entries cited, without tags or fusion partners.
UniProt P35499, whole entry: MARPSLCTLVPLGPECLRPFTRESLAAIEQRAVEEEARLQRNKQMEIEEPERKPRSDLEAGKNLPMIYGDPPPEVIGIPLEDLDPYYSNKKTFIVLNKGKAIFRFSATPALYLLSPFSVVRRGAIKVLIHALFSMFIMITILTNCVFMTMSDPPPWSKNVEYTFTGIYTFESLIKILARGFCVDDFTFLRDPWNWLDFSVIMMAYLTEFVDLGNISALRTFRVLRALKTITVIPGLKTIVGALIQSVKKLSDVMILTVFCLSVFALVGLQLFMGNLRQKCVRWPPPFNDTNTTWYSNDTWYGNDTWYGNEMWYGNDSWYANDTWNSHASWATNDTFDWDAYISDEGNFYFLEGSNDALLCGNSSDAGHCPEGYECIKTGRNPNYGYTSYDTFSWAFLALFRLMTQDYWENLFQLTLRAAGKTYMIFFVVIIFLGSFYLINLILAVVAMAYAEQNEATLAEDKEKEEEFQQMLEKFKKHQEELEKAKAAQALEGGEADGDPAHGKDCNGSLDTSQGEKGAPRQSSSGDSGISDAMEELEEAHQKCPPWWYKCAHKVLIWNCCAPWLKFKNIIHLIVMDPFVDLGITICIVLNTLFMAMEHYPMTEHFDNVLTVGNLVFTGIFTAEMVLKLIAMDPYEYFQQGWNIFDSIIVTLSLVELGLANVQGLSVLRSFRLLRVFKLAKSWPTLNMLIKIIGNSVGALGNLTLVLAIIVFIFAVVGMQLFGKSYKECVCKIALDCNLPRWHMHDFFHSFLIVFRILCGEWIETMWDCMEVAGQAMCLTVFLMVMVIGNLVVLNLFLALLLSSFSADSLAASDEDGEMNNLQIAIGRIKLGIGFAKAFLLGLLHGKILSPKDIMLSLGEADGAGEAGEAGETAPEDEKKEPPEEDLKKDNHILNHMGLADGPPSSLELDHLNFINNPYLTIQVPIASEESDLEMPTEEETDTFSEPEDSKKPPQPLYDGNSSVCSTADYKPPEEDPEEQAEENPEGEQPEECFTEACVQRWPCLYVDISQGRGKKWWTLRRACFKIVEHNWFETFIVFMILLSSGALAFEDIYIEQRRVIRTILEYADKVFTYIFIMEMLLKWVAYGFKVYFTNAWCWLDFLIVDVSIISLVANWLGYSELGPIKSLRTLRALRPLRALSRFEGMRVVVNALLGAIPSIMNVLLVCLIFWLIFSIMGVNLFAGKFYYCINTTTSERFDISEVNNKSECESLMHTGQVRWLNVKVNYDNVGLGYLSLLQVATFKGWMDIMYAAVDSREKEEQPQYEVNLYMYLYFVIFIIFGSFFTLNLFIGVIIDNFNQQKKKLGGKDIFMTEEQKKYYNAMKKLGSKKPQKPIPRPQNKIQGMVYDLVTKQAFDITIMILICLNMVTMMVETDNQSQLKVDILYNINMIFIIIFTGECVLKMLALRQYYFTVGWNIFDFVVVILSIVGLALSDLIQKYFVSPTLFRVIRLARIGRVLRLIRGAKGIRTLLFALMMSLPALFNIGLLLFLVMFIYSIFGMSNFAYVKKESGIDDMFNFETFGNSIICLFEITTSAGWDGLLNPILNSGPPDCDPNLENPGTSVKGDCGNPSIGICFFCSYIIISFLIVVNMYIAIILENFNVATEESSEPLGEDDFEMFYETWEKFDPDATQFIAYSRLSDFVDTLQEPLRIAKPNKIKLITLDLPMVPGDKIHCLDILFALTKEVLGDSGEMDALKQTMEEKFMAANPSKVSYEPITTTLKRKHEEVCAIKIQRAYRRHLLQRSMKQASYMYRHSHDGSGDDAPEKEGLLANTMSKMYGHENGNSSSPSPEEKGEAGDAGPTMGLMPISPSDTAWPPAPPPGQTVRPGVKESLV
UniProt Q99250, whole entry: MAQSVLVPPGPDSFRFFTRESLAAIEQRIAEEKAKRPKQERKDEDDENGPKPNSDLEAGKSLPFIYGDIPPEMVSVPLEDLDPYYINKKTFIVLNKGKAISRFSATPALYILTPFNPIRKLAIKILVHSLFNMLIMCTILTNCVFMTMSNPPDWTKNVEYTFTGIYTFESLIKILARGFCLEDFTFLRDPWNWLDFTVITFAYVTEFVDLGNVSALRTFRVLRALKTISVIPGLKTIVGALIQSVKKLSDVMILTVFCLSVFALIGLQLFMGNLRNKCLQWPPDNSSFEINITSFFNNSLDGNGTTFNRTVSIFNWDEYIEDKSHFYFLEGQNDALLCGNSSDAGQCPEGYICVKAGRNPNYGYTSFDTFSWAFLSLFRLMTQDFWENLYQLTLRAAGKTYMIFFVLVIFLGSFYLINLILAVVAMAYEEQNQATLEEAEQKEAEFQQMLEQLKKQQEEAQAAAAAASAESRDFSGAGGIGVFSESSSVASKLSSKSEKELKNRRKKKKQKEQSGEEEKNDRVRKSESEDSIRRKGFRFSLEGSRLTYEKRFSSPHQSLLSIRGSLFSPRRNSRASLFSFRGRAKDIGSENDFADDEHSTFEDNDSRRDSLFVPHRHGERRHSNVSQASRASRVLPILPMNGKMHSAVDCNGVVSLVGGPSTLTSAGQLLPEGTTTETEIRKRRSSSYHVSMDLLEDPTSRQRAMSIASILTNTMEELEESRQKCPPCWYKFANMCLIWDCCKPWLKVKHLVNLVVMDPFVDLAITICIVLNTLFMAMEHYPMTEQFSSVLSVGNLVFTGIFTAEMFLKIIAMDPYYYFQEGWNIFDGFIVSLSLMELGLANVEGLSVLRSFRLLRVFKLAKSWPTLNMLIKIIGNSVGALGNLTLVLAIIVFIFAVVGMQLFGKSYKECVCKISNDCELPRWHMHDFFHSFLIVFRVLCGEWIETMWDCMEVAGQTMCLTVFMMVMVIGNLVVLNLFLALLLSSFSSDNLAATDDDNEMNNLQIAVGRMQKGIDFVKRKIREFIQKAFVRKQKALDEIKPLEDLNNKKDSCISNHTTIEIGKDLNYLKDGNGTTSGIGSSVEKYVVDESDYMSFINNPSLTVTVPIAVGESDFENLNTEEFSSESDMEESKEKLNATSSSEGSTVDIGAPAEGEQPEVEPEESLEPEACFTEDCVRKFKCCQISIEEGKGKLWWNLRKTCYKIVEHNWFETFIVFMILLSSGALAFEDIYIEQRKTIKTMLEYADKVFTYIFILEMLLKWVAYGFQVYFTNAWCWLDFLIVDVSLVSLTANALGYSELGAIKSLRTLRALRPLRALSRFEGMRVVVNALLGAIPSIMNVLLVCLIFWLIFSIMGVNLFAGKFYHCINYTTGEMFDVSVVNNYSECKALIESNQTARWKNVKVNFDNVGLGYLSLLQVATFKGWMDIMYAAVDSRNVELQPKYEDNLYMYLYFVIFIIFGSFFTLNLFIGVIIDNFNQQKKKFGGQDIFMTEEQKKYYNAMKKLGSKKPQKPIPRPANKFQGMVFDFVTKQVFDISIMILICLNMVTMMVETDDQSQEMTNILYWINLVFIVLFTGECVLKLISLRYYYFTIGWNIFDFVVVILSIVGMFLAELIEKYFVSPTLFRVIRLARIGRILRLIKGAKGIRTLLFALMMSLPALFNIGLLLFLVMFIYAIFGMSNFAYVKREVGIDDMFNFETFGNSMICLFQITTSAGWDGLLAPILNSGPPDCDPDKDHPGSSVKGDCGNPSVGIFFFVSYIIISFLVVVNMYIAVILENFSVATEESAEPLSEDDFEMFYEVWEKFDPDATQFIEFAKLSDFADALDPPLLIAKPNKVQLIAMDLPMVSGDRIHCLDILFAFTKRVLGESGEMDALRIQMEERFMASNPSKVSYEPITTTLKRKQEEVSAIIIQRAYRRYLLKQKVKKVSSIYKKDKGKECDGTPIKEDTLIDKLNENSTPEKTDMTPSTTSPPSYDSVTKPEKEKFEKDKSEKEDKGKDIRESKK

[2] = molecular target: T2, hNav1.1 (Homo sapiens, UniProt P35498); experiment: Automated planar whole-cell patch clamp (Patchliner), hSCN1A HEK293T cells; format: cell-based; conditions: for Time constant of fast inactivation, K: vehicle 0.08 ± 0.01; for Time constant of fast inactivation, Plateau: vehicle 0.25 ± 0.07; for Time constant of fast inactivation, Span: vehicle 1.0 ± 0.2; for Voltage-dependence of inactivation Slope: vehicle 9.7 ± 0.3; for Voltage-dependence of activation Slope: vehicle 10.0 ± 0.7; for Voltage-dependence of activation V1/2: vehicle −2.6 ± 0.2; for Voltage-dependence of inactivation V1/2: vehicle −28.8 ± 1.4
T2 construct: expressed in transfected cells; host or cells: HEK293T
From the text: as §1, §2
Patch-clamp recordings were conducted in the whole-cell configuration using a Patchliner® (Nanion Technologies, Munich, Germany). Before recordings, cells were detached from culture flasks with Accutase Cell Detachment Solution (Innovative Cell Technologies Inc., San Diego, Calif., USA) and resuspended at a density of 1×10^6 to 5×10^7 per milliliter in 50% serum free media and 50% external recording solution v/v. The external recording solution comprised: 140 mM NaCl, 4 mM KCl, 1 mM MgCl2, 2 mM CaCl2), 5 mM D-glucose, 10 mM HEPES (pH adjusted to 7.4 with NaOH). The osmolarity of this solution was 298 mOsm. The internal recording solution comprised: 50 mM CsCl, 10 mM NaCl, 60 mM CsF, 2 mM MgCl2, 20 mM EGTA, 10 mM HEPES (pH adjusted to 7.2 with CsOH) and the osmolarity of this solution was 285 mOsm. Solutions were filtered using a 0.2 jm membrane filter (Minisart; Sartorius Stedim Biotech, Goettingen, Germany). Cells were kept in suspension by gentle automatic pipetting. Test peptide was dissolved in H2O with 0.1% fatty-acid free BSA (fafBSA) (Sigma-Aldrich, Castle Hill, NSW). Medium single-hole planar NPC-16 chips with an average resistance of ˜2.5 MΩ were used. Pipette and whole cell capacitance were fully compensated and the series resistance compensation was set to 50%. Recordings were acquired at 50 kHz with the low pass filter set to 3 kHz in PATCHMASTER (HEKA Instruments Inc., NY, USA) and performed at 27° C. When data needed further filtering for the analysis of sustained current, recordings were additionally filtered at 500 Hz offline using a Gaussian filter algorithm. Offline analysis was performed using Microsoft Excel, MatLab and GraphPad Prism 6 (Molecular Devices). Data are shown as means±S.E.M. Leak subtraction was performed in software before the currents were normalised. Statistical analysis was performed using Student's t-test and differences were considered significant when p<0.05.
The voltage dependence of activation was studied by measuring the normalised peak currents during 100 ms depolarisations from −120 mV to +30 mV in 5 mV increments. The resulting current-voltage curve was fit to the equation I=[I+exp(−0.03937.z.(V−V1/2)]/g.(V−Vr), where I is current amplitude; z is apparent gating charge; V is test potential; V1/2 is half maximal voltage; g is a factor related to the maximum number of open channels; and Vr is reversal potential. Conductance was determined using G=I/(V−Vr), where G is conductance. The conductance values were then fit with the Boltzmann equation G=1/(1+exp[(V−V1/2)/a]), where a is the slope of the half-maximum, V is the potential of the given pulse and V1/2 is the potential for the half-maximal activation. To study steady-state fast inactivation, cells were held at conditioning pre-pulse potentials ranging from −120 mV to +30 mV in 5 mV increments from a holding potential of −120 mV and a test pulse at 0 mV for 20 ms. […]

[3] = system: TG or DRG neurons; experiment: Calcium imaging of cultured somatosensory neurons (Fura-2); format: cell-based, rat; conditions: application of synthetic Hm1a
[4] = molecular target: T3, hNav1.2 (Homo sapiens, UniProt Q99250); experiment: Automated planar whole-cell patch clamp (Patchliner), hSCN2A HEK293T cells; format: cell-based; conditions: concentrations tested up to 50 nM
T3 construct: expressed in transfected cells; host or cells: HEK293T
From the text: as §1, §2, §3

`CC(C)C[C@@H]1NC(=O)[C@H](Cc2ccc(O)cc2)NC(=O)[C@H](CCCNC(=N)N)NC(=O)[C@@H](NC(=O)[C@@H](N)CCC(=O)O)CSSC[C@@H]2NC(=O)[C@@H]3CSSC[C@@H](C(=O)N[C@@H](C)C(=O)N[C@@H](Cc4c[nH]c5ccccc45)C(=O)N[C@@H](CC(=O)O)C(=O)NCC(=O)N[C@H](C(=O)N[C@@H](Cc4ccccc4)C(=O)N[C@@H](CO)C(=O)O)[C@@H](C)O)NC(=O)[C@H](Cc4ccc(O)cc4)NC(=O)[C@H](CCCCN)NC(=O)[C@H](Cc4c[nH]c5ccccc45)NC(=O)[C@H](CC(=O)O)NC(=O)[C@H](CO)NC(=O)[C@H](CCCNC(=N)N)NC(=O)[C@H](CSSC[C@H](NC(=O)CNC(=O)CNC(=O)[C@H](Cc4ccccc4)NC1=O)C(=O)N[C@@H](CO)C(=O)N[C@@H](CO)C(=O)N[C@@H]([C@@H](C)O)C(=O)N[C@@H](CO)C(=O)N[C@@H](CC(=O)O)C(=O)N3)NC(=O)[C@H](CO)NC(=O)[C@H](CC(C)C)NC(=O)[C@H](Cc1c[nH]cn1)NC(=O)[C@H](CCCCN)NC2=O` [Hm1a] was tested, and the “effect on hNav1.4 current” value [1] was “no effect”, the “voltage-dependence of fast inactivation of hNav1.1” value [2] was “does not alter” and the “voltage-dependence of steady-state activation of hNav1.1” value [2] was “hyperpolarizing shift”. For the same compound, the “Time constant of fast inactivation, K” value ([2]; 1 nM) was 0.11 ± 0.02, the “Time constant of fast inactivation, Plateau” value (from here on “Time constant … Plateau”) ([2]; 1 nM) was 0.30 ± 0.02 and the “Time constant of fast inactivation, Span” value ([2]; 1 nM) was 1.2 ± 0.3. For the same compound, the “Voltage-dependence of inactivation Slope” value ([2]; 1 nM) was 9.0 ± 0.2, the “Voltage-dependence of activation Slope” value ([2]; 1 nM) was 10.6 ± 0.9 and the “Voltage-dependence of activation V1/2” value ([2]; 1 nM) was −8.1 ± 0.4 mV. For the same compound, the “Voltage-dependence of inactivation V1/2” value ([2]; 1 nM) was −30.7 ± 1.0 mV, the “time constants of fast inactivation of hNav1.1” value ([2]; 5 nM and 50 nM, potentials more positive than −5 mV) was “significantly increases” and the “Time constant of fast inactivation, K” value ([2]; 5 nM) was 0.07 ± 0.01. For the same compound, the “Time constant … Plateau” value ([2]; 5 nM) was 0.47 ± 0.03, the “Time constant of fast inactivation, Span” value ([2]; 5 nM) was 0.9 ± 0.4 and the “Voltage-dependence of inactivation Slope” value ([2]; 5 nM) was 9.7 ± 0.4. For the same compound, the “Voltage-dependence of activation Slope” value ([2]; 5 nM) was 9.4 ± 0.4, the “Voltage-dependence of activation V1/2” value ([2]; 5 nM) was −13.3 ± 0.9 mV and the “Voltage-dependence of inactivation V1/2” value ([2]; 5 nM) was −33.4 ± 1.1 mV. For the same compound, the “Time constant of fast inactivation, K” value ([2]; 50 nM) was 0.09 ± 0.02, the “Time constant … Plateau” value ([2]; 50 nM) was 0.75 ± 0.1 and the “Time constant of fast inactivation, Span” value ([2]; 50 nM) was 0.8 ± 0.1. The “Voltage-dependence of inactivation Slope” value ([2]; 50 nM) was 11.9 ± 0.8, the “Voltage-dependence of activation Slope” value ([2]; 50 nM) was 11.8 ± 1.3 and the “Voltage-dependence of activation V1/2” value ([2]; 50 nM) was −12.3 ± 1.0 mV. The “Voltage-dependence of inactivation V1/2” value ([2]; 50 nM) was −29.6 ± 1.2 mV, the hNav1.1 channel inactivation ([2]; 1, 5 or 50 nM) was “potently inhibits hNav1.1 inactivation in a dose-dependent manner” and the “peak current amplitude of hNav1.1” value ([2]; 1, 5 or 50 nM) was “minimal increase”. The hNav1.1 sustained current ([2]; after 24 ms, 5 nM and especially 50 nM, still substantial at end of 100 ms step) was “emergence of a sustained current is apparent”, the “calcium responses in TG neurons” value [3] was “triggered calcium responses” and the “effect on hNav1.2 current” value [4] was “no effect”.

Source: patent US11124550B2, “Proteinaceous molecules and methods of use” (priority 2015, dated 2021)
